In this assay the target is T1, mouse β-catenin (mouse, UniProt Q02248 2-781).
T1 construct: mature; also called ^35S-labeled β-catenin
T1 sequence (looked up): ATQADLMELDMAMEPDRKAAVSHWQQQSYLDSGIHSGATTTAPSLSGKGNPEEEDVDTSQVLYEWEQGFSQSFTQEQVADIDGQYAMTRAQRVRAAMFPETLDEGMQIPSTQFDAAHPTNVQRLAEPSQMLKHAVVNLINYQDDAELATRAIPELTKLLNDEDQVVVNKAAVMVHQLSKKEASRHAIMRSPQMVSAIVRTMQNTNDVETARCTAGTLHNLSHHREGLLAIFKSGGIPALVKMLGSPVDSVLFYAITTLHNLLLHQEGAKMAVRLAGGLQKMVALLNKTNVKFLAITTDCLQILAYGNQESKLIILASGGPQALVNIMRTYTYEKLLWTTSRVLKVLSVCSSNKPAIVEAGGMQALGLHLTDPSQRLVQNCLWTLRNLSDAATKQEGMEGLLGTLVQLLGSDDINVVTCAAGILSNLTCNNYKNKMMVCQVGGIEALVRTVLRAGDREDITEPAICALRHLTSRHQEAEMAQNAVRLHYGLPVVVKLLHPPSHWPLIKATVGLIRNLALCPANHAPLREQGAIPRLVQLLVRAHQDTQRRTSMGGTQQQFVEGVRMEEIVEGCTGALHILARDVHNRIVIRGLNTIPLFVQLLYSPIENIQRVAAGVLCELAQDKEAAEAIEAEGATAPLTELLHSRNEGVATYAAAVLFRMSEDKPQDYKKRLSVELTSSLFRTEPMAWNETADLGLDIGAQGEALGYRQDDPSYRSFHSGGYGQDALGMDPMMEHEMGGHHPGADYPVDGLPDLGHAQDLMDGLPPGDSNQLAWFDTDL
The experiment in a line: pull-down on glutathione-Sepharose 4B of ^35S-labeled β-catenin, autoradiography. The protocol: Analysis of Binding Between ICAT and β-catenin (1) Detection of the Direct Binding In Vitro The direct binding of ICAT to β-catenin was verified as follows. ^35S-labeled β-catenin was translated and synthesized from mouse β-catenin mRNA in vitro by using ^35S-labeled methionine TNT-reticulocyte lysate system (Promega). The GST/ICAT-expressing E. coli as well as control GST-expressing E. coli prepared in Example 3 were cultured to obtain the respective bacterial lysates. Glutathione-Sepharose 4B (Amersham-Pharmacia Biotech) was added to these bacterial lysates, and […] or GST was adsorbed on it to isolate it. The GST/ICAT- or GST-adsorbed glutathione-Sepharose 4B was reacted to the above-mentioned ^35S-labeled β-catenin in buffer A containing 0.1% Triton X-100 at 4° C. for 2 hours. After the glutathione-Sepharose 4B was washed well with buffer A and then SDS-PAGE sample buffer was added thereto to elute the bound protein to the sample buffer. The eluate was used as a sample in SDS-PAGE in which the gel concentration was 15% and then the gel was visualized by autoradiography. […] Accordingly, it has been verified that GST/ICAT directly binds to β-catenin in vitro and that the site responsible for the binding to β-catenin is located within the ICAT moiety of GST/ICAT.

B1: GST (glutathione S-transferase) alone (other, UniProt P08515 1-218, looked up)
chain: MSPILGYWKIKGLVQPTRLLLEYLEEKYEEHLYERDEGDKWRNKKFELGLEFPNLPYYIDGDVKLTQSMAIIRYIADKHNMLGGCPKERAEISMLEGAVLDIRYGVSRIAYSKDFETLKVDFLSKLPEMLKMFEDRLCHKTYLNGDHVTHPDFMLYDALDVVLYMDPMCLDAFPKLVCFKKRIEAIPQIDKYLKSSKYIAWPLQGWQATFGGGDHPPK
notes: Control protein from E. coli transformed with pGEX5X-1; also called control GST
For B1, the binding result is “no binding”.
